This is an account of results in PubChem BioAssay AID504441 (Broad Institute, 2011).

As a reminder, the inhibition is the relative decrease from the control value, in per cent.

The list shows a part of the results, in another mix than the full data. Some salts and complexes are drawn in separate pieces, as the source files them; their charges need not balance. The source made the active and inactive calls. Cut-off read from the data, not from the text of the source: active = inhibition above about 50%; inactive = the rest.

For this experiment, the target named is Dual specificity tyrosine-phosphorylation-regulated kinase 1A (Rattus norvegicus) (UniProt Q63470). The experiment is described as follows: inhibition of Dyrk1A kinase activity – biochemical, single point, plate reader, primary screen (AID 504441).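 Note: plate controls were vehicle with enzyme for no effect and no enzyme for full effect.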 Particulars: ADP-Glo luminescence, NFATc1 peptide, at 12.5 µM, hits give high values. Background: ADP-Glo turns the ADP formed in a reaction into a luminescent signal.
For `CP(=S)(Nn1cnnc1)Oc1ccccc1` (centres undefined), the inhibition was inactive: 4.79%.
The result for `CCOC(=O)c1ccc(NP(C)(=O)Oc2ccc(OC)cc2)cc1` (centres undefined) reads inactive: -2.92%.
The result for `CCOP(C)(=S)SCC(=O)NC(C)C(=O)O` (centres undefined) reads inactive: 0.559%; that for `Cc1cc(C)cc(OP(C)(=O)Nc2ccc(SC(F)(F)F)cc2)c1` (centres undefined), inactive: 8.02%.
Under `CCc1ccc(OP(C)(=O)N2CCN(c3ccc([N+](=O)[O-])cc3)CC2)cc1` (centres undefined) stands inactive: 5.99%; under `CP(=O)(NC(=O)Nc1ccccc1)Oc1ccccc1` (centres undefined), inactive: -0.906%; under `CP(=O)(Oc1ccccc1)OC(c1ccccc1)C(F)(F)F` (centres undefined), inactive: -14.3%.
For `Cc1cccc(C)c1OP(C)(=O)Nc1ccc(SC(F)(F)F)cc1` (centres undefined), the inhibition was inactive: 0.0135%.
On to `COc1ccc(OP(C)(=O)Nc2cccc(F)c2)cc1` (centres undefined), for which the inhibition is inactive: -3.69%.
Under `COc1ccccc1OP(C)(=O)Nc1cc(Cl)ccc1C` (centres undefined) stands inactive: 5.87%.
The result for `Cc1ccc(NP(C)(=O)Oc2ccccc2)c(C)c1` (centres undefined) reads inactive: -2.04%; that for `COc1ccccc1OP(C)(=O)Nc1ccc(C)cc1` (centres undefined), inactive: 8.76%.
The result for `CCOC(=O)c1ccc(NP(C)(=O)Oc2ccccc2)cc1` (centres undefined) reads inactive: -2.06%; that for `O=[N+]([O-])c1ccc2c(c1)C=Nc1ccccc1O2`, inactive: -3.49%.
Consider `CC(C)(C)c1ccc(OP(C)(=O)Nc2ccc(SC(F)(F)F)cc2)cc1` (centres undefined), for which the inhibition is inactive: -1.65%.
The result for `O=[N+]([O-])c1cc([N+](=O)[O-])c(Nc2cccnc2)c([N+](=O)[O-])c1` reads inactive: 0.493%; that for `CP(=O)(OCCOc1ccccc1)OCCOc1ccccc1`, inactive: -3.99%.
Under `CP(=O)(Nc1ccc(Cl)cc1Cl)Oc1ccccc1` (centres undefined) stands inactive: -5.98%.
`CCCCCCCCCCCCCCCC1C[N+](C)(C)CCOP(C)(=O)O1` (centres undefined): the inhibition was inactive: -0.725%.
Turning to `COc1ccccc1OP(C)(=O)Nc1ccc(C)c(C)c1` (centres undefined), the inhibition is inactive: 10.1%.
Under `COc1ccc(OP(C)(=O)Nc2ccccc2Br)cc1` (centres undefined) stands inactive: -1.88%.
The result for `Cc1cc(C)cc(OP(C)(=O)Nc2cccc(C(F)(F)F)c2)c1` (centres undefined) reads inactive: -2.62%; that for `O=C1C(O)=C([N+](=O)[O-])C(=O)C(O)=C1[N+](=O)[O-]`, inactive: 1.04%.
The result for `COc1ccccc1OP(C)(=O)Nc1ccc(C)cc1C` (centres undefined) reads inactive: 0.375%.
As to `CP(=O)(Nc1ccccn1)Oc1ccccc1` (centres undefined), the inhibition was inactive: -4.03%.
Under `CCc1ccc(OP(C)(=O)O)cc1` stands inactive: 0.737%.
Under `O=[N+]([O-])c1cc([N+](=O)[O-])c(Nc2ccccn2)c([N+](=O)[O-])c1` stands inactive: 15.1%; under `Cc1c(NP(C)(=O)Oc2ccc(C(C)C)cc2)c(=O)n(-c2ccccc2)n1C` (centres undefined), inactive: 1.31%; under `COc1ccc(OP(C)(=O)Nc2ccccn2)cc1` (centres undefined), inactive: 1.92%.
For `COc1ccccc1OP(C)(=O)Nc1ccc(Br)cc1` (centres undefined), the inhibition is inactive: 5.73%.
Under `CN(C)C(=O)c1c([N+](=O)[O-])cc([N+](=O)[O-])cc1[N+](=O)[O-]` stands inactive: 4.36%; under `CC(C)(C)c1ccc(OP(C)(=O)O)cc1`, inactive: -3.88%.
The result for `COc1ccccc1OP(C)(=O)Nc1ccccc1Br` (centres undefined) reads inactive: -4.32%; that for `CP(=O)(Nc1ccc(Cl)cc1)Oc1ccc(F)cc1` (centres undefined), inactive: -3.68%.
The result for `COc1ccccc1OP(C)(=O)Nc1c(C)n(C)n(-c2ccccc2)c1=O` (centres undefined) reads inactive: -3.37%.
With `CP(=O)(Oc1ccccc1)N1CCOC1=O` (centres undefined), the inhibition is inactive: 4.72%.
Consider `COc1ccc(OP(C)(=O)Nc2ccc(Br)cc2)cc1` (centres undefined), for which the inhibition was inactive: -1.61%.
Consider `CCN(CC)CC(O)COC(=O)C(O)(c1ccccc1)C1CCCCC1` (centres undefined), for which the inhibition was inactive: 3.31%.
For `CCOC(=O)c1ccc(NP(C)(=O)Oc2ccc(Cl)cc2)cc1` (centres undefined), the inhibition is inactive: -5.88%.
On to `CP(=O)(OC12CC3CC(CC(C3)C1)C2)OC12CC3CC(CC(C3)C1)C2`, for which the inhibition was inactive: -1.5%.
Under `Cc1c(C(c2ccc3c(c2)OCO3)c2c(C)n(C)n(-c3ccccc3)c2=O)c(=O)n(-c2ccccc2)n1C.O=[N+]([O-])c1cc([N+](=O)[O-])c(O)c([N+](=O)[O-])c1` stands inactive: 4.72%; under `O=[N+]([O-])c1ccc(OP2(=O)COCCO2)cc1` (centres undefined), inactive: -2.8%; under `Cc1cc(-c2cccc3ccccc23)c(C)cn1.O=[N+]([O-])c1cc([N+](=O)[O-])c(O)c([N+](=O)[O-])c1`, inactive: 6.21%.
The result for `O=[N+]([O-])c1cc([N+](=O)[O-])c(NCC2CCS(=O)(=O)C2)c([N+](=O)[O-])c1` (centres undefined) reads inactive: -3.15%; that for `CN(C)CCOC(=O)C(O)(c1ccccc1)C1CCCCC1` (centres undefined), inactive: -1.48%; that for `COc1ccc(NP(C)(=O)Oc2ccccc2OC)cc1` (centres undefined), inactive: 0.0394%.
The result for `COc1ccc(OP(C)(=O)Nc2cccc(Br)c2)cc1` (centres undefined) reads inactive: 3.23%.
On to `Cc1ccccc1NP(C)(=O)Nc1ccccc1C`, for which the inhibition was inactive: -0.104%.
The result for `CP(=O)(Nc1ccc2c(c1)OCCO2)Oc1ccccc1` (centres undefined) reads inactive: 7.35%.
The result for `CCOP(C)(=S)SCC(=O)NC(C)(CC)C(=O)O` (centres undefined) reads inactive: -7.81%; that for `CP(=O)(Nc1ccc(SC(F)(F)F)cc1)Oc1ccc(F)cc1` (centres undefined), inactive: -1.45%.
The result for `COc1ccc2c(c1O)-c1c(O)c(OC)cc3c1[C@H](C2)[N+](C)(C)CC3.O=[N+]([O-])c1cc([N+](=O)[O-])c([O-])c([N+](=O)[O-])c1[O-]` reads inactive: 1.34%; that for `O=C(OC1CN2CCC1CC2)c1ccc([N+](=O)[O-])cc1` (centres undefined), inactive: -0.654%; that for `CC(C)c1ccc(OP(C)(=O)Nc2ccc(SC(F)(F)F)cc2)cc1` (centres undefined), inactive: -0.963%.
Regarding `CP(=O)(Nc1ccccc1)Oc1ccc(F)cc1` (centres undefined), the inhibition was inactive: 2.52%.
As for `O=[N+]([O-])c1cc([N+](=O)[O-])c(OC2CCCCC2O)c([N+](=O)[O-])c1` (centres undefined), the inhibition was inactive: 7.37%.
Under `CCN(CC)CCCOC(=O)C(O)(c1ccccc1)C1CCCCC1` (centres undefined) stands inactive: 0.306%.
In the case of `CCOC(=O)c1ccc(NP(C)(=O)Oc2ccc(F)cc2)cc1` (centres undefined), the inhibition was inactive: -5.02%.
Under `COc1ccc(OP(C)(=O)Nc2ccc(SC(F)(F)F)cc2)cc1` (centres undefined) stands inactive: -0.00611%.
